The chains behind the UniProt entries cited, without tags or fusion partners.
UniProt Q15858, whole entry: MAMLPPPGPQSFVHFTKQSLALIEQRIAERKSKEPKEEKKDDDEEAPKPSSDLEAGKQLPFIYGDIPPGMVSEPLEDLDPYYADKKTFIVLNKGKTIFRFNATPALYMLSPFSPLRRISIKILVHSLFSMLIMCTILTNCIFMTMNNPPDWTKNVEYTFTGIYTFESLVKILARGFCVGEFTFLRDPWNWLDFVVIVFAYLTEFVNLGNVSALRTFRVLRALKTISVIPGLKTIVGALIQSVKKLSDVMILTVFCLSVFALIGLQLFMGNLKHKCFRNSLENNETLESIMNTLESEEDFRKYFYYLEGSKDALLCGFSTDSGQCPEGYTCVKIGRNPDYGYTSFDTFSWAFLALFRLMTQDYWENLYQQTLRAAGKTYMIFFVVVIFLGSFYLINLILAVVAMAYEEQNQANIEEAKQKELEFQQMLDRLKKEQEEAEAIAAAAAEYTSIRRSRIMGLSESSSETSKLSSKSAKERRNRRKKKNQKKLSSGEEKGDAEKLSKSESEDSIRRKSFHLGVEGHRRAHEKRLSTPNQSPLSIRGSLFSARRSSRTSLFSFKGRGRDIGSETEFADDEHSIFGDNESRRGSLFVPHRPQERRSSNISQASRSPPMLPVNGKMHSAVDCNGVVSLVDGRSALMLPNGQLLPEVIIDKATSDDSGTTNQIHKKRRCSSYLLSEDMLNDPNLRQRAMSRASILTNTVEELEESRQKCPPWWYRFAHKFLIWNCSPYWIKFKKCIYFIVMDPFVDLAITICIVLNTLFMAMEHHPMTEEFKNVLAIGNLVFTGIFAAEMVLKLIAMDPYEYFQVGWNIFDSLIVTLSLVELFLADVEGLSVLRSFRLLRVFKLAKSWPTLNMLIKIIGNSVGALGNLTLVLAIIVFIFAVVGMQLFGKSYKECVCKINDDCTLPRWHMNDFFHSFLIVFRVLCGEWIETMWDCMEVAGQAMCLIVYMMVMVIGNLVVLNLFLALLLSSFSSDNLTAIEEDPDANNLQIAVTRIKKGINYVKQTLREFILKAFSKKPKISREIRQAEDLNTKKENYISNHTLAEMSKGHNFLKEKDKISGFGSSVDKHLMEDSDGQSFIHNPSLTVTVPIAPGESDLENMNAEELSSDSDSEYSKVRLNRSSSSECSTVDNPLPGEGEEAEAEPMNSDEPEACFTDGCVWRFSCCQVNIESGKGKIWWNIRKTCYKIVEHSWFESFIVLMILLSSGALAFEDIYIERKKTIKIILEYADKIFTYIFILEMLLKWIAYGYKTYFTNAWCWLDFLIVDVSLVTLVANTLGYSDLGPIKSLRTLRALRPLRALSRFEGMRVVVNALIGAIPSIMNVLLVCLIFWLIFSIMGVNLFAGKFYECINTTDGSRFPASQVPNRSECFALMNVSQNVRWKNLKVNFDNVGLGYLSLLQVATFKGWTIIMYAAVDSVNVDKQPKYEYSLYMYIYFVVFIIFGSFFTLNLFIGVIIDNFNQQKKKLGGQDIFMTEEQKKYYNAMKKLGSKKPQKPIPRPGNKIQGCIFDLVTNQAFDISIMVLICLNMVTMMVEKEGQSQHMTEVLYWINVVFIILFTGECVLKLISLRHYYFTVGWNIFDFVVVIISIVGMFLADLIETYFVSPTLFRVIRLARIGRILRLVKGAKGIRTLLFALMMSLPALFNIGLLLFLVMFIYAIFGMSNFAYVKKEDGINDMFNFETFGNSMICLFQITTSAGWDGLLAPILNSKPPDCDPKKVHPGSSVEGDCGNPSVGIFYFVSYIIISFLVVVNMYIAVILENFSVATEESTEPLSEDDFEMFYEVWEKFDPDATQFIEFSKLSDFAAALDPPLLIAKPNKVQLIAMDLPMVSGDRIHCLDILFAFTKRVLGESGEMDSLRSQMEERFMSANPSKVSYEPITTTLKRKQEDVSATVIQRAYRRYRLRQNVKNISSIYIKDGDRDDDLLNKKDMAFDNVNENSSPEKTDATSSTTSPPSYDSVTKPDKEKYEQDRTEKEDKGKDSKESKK

According to patent publication US9452986B2, “6-heteroaryloxy- or 6-aryloxy-quinoline-2-carboxamides and method of use” (AbbVie Inc., priority 2014, dated 2016):

Target: recombinant human Nav1.7 (Homo sapiens (Human), UniProt Q15858)
Assay: FRET-based membrane potential assay, recombinant human sodium channel Nav1.7
Conditions: read-out: FRET-Membrane Potential Nav1.7 IC50

Structure (SMILES): O=C(NCC(=O)N1CCCC1)c1ccc2cc(Oc3ccc(C(F)(F)F)cn3)ccc2n1 [Example 44, N-[2-oxo-2-(pyrrolidin-1-yl)ethyl]-6-{[5-(trifluoromethyl)pyridin-2-yl]oxy}quinoline-2-carboxamide]
- IC50: 1670 nM
